Data taken from patent publication US20220370565A1 (SHANGHAI INSTITUTE OF BIOLOGICAL PRODCCTS CO., LTD., priority 2019, published 2022).

System: human breast cancer BT-474
Assay: subcutaneous transplanted tumors of human breast cancer BT-474 in nude mice
Format: in vivo
Settings: Herceptin 5 mg/kg IV (first dose doubled), D 0, 3, 7, 10, 14, 17
Description: The indicators of tumor inhibition experiments in mice were to investigate the effect of drugs on tumor growth, and the specific indicators were T/C % or the rate of tumor growth inhibition TGI (%).
The diameter of the tumor was measured with a vernier caliper twice a week, and the formula for calculating the tumor volume (V) was: V=½xaxb^2, wherein a and b represented the length and width, respectively.
T/C(%)=(T−T0)/(C−C0)×100,
wherein, T and C were the tumor volumes at the end of the experiment; T0 and C0 were the tumor volumes at the beginning of the experiment. • The rate of tumor growth inhibition (TGI) (%)=100−T/C (%).
When the tumor regressed, the rate of tumor growth inhibition (TGI) (%) was =100−(T−T0)/T0×100
If a tumor was smaller than the initial volume, i.e., T<T0 or C<C0, it was defined as partial regression (PR) of the tumor; if a tumor disappeared completely, it was defined as complete regression (CR) of the tumor.
At the end of the experiment (e.g., D21), reaching the experimental endpoint, or the tumor volume reached 1,500 mm^3, the animals were sacrificed after CO2 anesthesia, and then the tumors were dissected and photographed.
Nude mice were subcutaneously inoculated with 1×10^7 human breast cancer BT-474 cells. After the tumor grew to 100-150 mm^3, the animals were grouped according to tumor volume (D0). Mice were administered subcutaneously (SC) or intravenously (IV), twice a week (BIW); the administration volume was 10 mL/kg; the solvent group was administered with the same volume of “solvent” (normal saline); specific dosage and administration regimen were shown in Table 3. The tumor volumes were measured twice a week, the mice were weighed, and the data were recorded.
Two-tailed Student's t-test was used to compare tumor volumes between the two groups, and P<0.05 was defined as a statistically significant difference.

Substance: Herceptin: Trastuzumab injection, humanized anti-Her2 monoclonal antibody purchased from Roche Pharmaceuticals [reference compound]
- % T/C D 20: 43%
- Mean tumor volume D 20 SEM: 514.2 ± 113.4 mm^3
- Tumor inhibition rate % D 20: 57%
- Mean tumor volume D 0 SEM (baseline at grouping): 93.6 ± 2.4 mm^3
